Test system: β-lactamase enzyme of Escherichia coli B11
Format: biochemical
Details: sodium salt, substantially pure
From the text: This β-lactamase is classified as a type IIIa enzyme according to the classification of Richmond and Sykes [Adv. in Microbiol.Physiol. 9 31 (1973)]
The rate of β-lactamase hydrolysis of ampicillin to its penicilloic acid can be followed by a starch-iodometric assay in which one measures the rate of formation of penicilloic acid by following the decolorization of a starch-iodine complex. This method and the preparation of the β-lactamase are described in a paper by Cole M., Elson S., and Fullbrook P. D. (Biochemical Journal 1972, 127, 295-308). […] The procedure was as follows:
Buffer: 0.05M pH7 potassium phosphate buffer
Prepared from E.coli B11 as described by Cole
Enzyme: et al, Biochem. J.(1972) 127, 295. The dilution
The reactions were carried out in 1cm cuvettes at 37° C. in an SP 800 Pye Unicam spectrophotometer. This instrument can carry four sample cuvettes and their corresponding blanks. The first cuvette was used for the control reaction and contained no inhibitor. The 2nd, 3rd and 4th cuvettes were used for various dilutions of the inhibitor. Thus:
The reactions were followed by recording optical density change at 590 nm. and measuring the velocity of the reaction as optical density change per 100 secs. during the 3-6 minute time interval. The inhibitor sample was diluted until a dilution was reached which gave 50% of the rate of reaction seen in the no-inhibitor control.

## CC(=O)N/C=C/[S+]([O-])C1=C(C(=O)O)N2C(=O)C(C(C)OS(=O)(=O)O)C2C1 (stereo not shown) [MM 4550A]
  I50: less than 0.0001 μg/ml

— US4113856A, “Antibiotic mm 13902” (Beecham Group Limited, priority 1974, dated 1978)
